# Measurements: PubChem BioAssay AID1024 (Sanford-Burnham Center for Chemical Genomics, 2008)
# Sequences of proteins named here, by UniProt entry; tags and fusion partners are left off.
# UniProt P11712, whole entry: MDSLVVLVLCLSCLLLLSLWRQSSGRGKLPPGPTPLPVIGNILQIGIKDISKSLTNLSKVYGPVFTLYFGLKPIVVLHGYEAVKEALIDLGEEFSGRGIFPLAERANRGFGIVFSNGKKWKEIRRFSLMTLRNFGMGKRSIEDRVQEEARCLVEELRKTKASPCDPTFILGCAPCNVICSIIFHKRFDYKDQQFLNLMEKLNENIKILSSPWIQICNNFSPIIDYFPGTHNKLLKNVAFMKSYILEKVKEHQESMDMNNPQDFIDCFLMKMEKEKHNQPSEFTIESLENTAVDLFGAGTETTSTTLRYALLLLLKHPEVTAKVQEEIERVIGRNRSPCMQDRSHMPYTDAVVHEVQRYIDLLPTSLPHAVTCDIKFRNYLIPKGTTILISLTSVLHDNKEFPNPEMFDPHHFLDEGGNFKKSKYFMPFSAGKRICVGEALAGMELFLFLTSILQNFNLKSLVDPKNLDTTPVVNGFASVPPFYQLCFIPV
# The entries are a selection whose mix differs from that of the whole data set. The source made the active and inactive calls.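 How the source made its calls: active means activation factor of 2 or more for CYP2C9 at a 5 µM dose; inactive means the rest.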
# Biological target: Cytochrome P450 2C9 (Homo sapiens) (UniProt P11712)
# Test: human CYP2C9 activators, primary screen, biochemical, luminescence (AID 1024);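 further: 0 = sulfaphenazole-blocked wells and 1 = vehicle-only wells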
# Settings: recombinant CYP2C9, luciferin-H conversion, at 5 µM, hits give high values, factor 1 = untreated enzyme, 0 = blocked
row,Compound,activation factor
1,Cc1cc(C)cc(OP(C)(=O)Nc2ccc(C)cc2C)c1 (stereo not given),inactive: 0.6
2,Cc1ccc(C)c(NP(C)(=O)Oc2ccccc2)c1 (stereo not given),inactive: 1.1
3,Cc1cc(C)cc(OP(C)(=O)Nc2ccccn2)c1 (stereo not given),inactive: 0.9
4,Cc1nc2ccc3ccccc3c2s1.O=[N+]([O-])c1cc([N+](=O)[O-])c(O)c([N+](=O)[O-])c1,inactive: 0.9
5,CP(=O)(NC(=O)Nc1ccccc1)Oc1ccccc1 (stereo not given),inactive: 1.2
6,CP(=O)(Nc1ccccn1)Oc1ccc(Cl)cc1 (stereo not given),inactive: 1
7,CCOP(C)(=S)SCC(=O)NC(C)C(=O)O (stereo not given),inactive: 0.5
8,CP(=S)(Nn1cnnc1)Oc1ccccc1 (stereo not given),inactive: 0.7
9,COc1ccc(OP(C)(=O)Nc2cccc(F)c2)cc1 (stereo not given),inactive: 0.5
10,COc1ccccc1OP(C)(=O)Nc1ccc(C)cc1 (stereo not given),inactive: 0.9
11,Cc1ccc(NP(C)(=O)Oc2ccccc2)c(C)c1 (stereo not given),inactive: 0.7
12,COc1ccc(OP(C)(=O)Nc2ccccn2)cc1 (stereo not given),inactive: 1
13,CN(C)CCOC(=O)C(O)(c1ccccc1)C1CCCC1 (stereo not given),inactive: 0.9
14,CP(=O)(Nc1ccccn1)Oc1ccccc1 (stereo not given),inactive: 1.1
15,COc1ccccc1OP(C)(=O)Nc1ccc(C)cc1C (stereo not given),inactive: 1
16,CCc1ccc(OP(C)(=O)O)cc1,inactive: 1
17,Cc1c(NP(C)(=O)Oc2ccc(C(C)C)cc2)c(=O)n(-c2ccccc2)n1C (stereo not given),inactive: 0.7
18,COc1ccccc1OP(C)(=O)Nc1ccc(C)c(C)c1 (stereo not given),inactive: 1.1
19,Cc1nc2ccc3ccccc3c2o1.O=[N+]([O-])c1cc([N+](=O)[O-])c(O)c([N+](=O)[O-])c1,inactive: 0.8
20,CP(=O)(OC12CC3CC(CC(C3)C1)C2)OC12CC3CC(CC(C3)C1)C2,inactive: 1.1
21,COc1ccccc1OP(C)(=O)Nc1c(C)n(C)n(-c2ccccc2)c1=O (stereo not given),inactive: 1
22,CP(=O)(Oc1ccccc1)N1CCOC1=O (stereo not given),inactive: 1.1
23,CCN(CC)CC(O)COC(=O)C(O)(c1ccccc1)C1CCCCC1 (stereo not given),inactive: 1
24,CC(C)(C)c1ccc(OP(C)(=O)O)cc1,inactive: 1
25,CCOP(C)(=S)SCC(=O)NC(C)(CC)C(=O)O (stereo not given),inactive: 0.5
26,Cc1ccccc1NP(C)(=O)Nc1ccccc1C,inactive: 0.8
27,CN(C)CCOC(=O)C(O)(c1ccccc1)C1CCCCC1 (stereo not given),inactive: 0.9
28,COc1ccc(OP(C)(=O)Nc2cccc(Br)c2)cc1 (stereo not given),inactive: 0.7
29,CP(=O)(Nc1ccccc1)Oc1ccc(F)cc1 (stereo not given),inactive: 1.2
30,CP(=O)(Nc1ccccc1F)Oc1ccccc1 (stereo not given),inactive: 0.9
